Chains of the proteins cited; added tags and fusions are not shown. Residues count along the entry.
UniProt P34969, 1-445 isoform 2: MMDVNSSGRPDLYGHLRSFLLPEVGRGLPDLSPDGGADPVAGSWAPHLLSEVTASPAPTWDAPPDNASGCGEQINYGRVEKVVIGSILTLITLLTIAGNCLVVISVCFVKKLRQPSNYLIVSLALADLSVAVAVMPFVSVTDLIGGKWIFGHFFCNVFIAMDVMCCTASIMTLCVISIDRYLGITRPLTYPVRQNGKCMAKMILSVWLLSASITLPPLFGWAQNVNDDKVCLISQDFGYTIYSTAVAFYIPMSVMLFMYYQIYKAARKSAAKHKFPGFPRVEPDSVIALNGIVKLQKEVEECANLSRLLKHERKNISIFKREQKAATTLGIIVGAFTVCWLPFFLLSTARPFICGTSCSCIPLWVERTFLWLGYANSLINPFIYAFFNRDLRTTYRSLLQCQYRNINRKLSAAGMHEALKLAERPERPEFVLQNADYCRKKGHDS

In patent US7683077B2, “Piperidine derivative” (Ajinomoto Co., Inc., priority 2003, dated 2010):

Key:
Human 5-HT7a receptor = Human 5-HT7a receptor (Homo sapiens, UniProt P34969); assay: Receptor binding assay (RBA) using 5HT-7 expression cells; details: displacement of 2-[125I]-(+)-iodo-lysergic acid diethylamide, membranes of human 5-HT7a CHO-K1 cells
Human 5HT-7 = Human 5HT-7 (Homo sapiens, UniProt P34969); assay: Evaluation of 5HT-7 agonist activity using 5HT-7 expression cells (cAMP); format: cell-based; details: cAMP in h5HT7-C2 CHO-K1 cells, tested form: trifluoroacetate

Structure (SMILES)	pIC50 (Human 5-HT7a receptor; tested form: hydrochloride)	pIC50 (Human 5-HT7a receptor; tested form: HCl)	further results
COc1ccccc1C(=C1CCN(CCNS(=O)(=O)c2cccs2)CC1)c1cccc(Cl)c1	7.4	–	–
COc1ccccc1C(=C1CCN(CCNS(=O)(=O)c2ccccc2Br)CC1)c1cccc(Cl)c1	–	7.8	–
CCCN1CCC(=C(c2cccc(Cl)c2)c2cc(OC)ccc2OC)CC1	–	–	EC50 (Human 5HT-7; 10 μM serotonin = 100%): 23 nM; agonist action compared with serotonin (FIG. 1) (Human 5HT-7): stronger than that of serotonin; pIC50 (Human 5-HT7a receptor; tested form: trifluoroacetate): 8.3
COc1ccccc1C(=C1CCN(CCNS(=O)(=O)c2ccc(F)cc2F)CC1)c1cccc(Cl)c1	7.4	–	–
COc1ccc(OC)c(S(=O)(=O)NCCN2CCC(=C(c3cccc(Cl)c3)c3ccccc3OC)CC2)c1	–	8.2	–
